Screening data as filed in PubChem.
Only some compounds are listed: those with a hit (about 0.72% of all), similar ones and a draw of the others.
ERG-DNA inh: ERG Ets/DNA interaction inhibition | fluorescence polarization, His-ERG Ets domain / labelled DNA | Potency, µM (series often up to 76.9 µM), for inactives: top-dose FP activity, negative = inhibition, actives largely listed as inhibitors | hit rate 0.028% among 370,000; active = well fitted inhibition curve with a large enough effect in the polarisation, with a control signal flat; inconclusive = small, poorly fitted or top-dose-only effect, or effect the other way, or a change in a side signal; inactive = no such curve, though single readings can be large or run the other way; the % refers to the polarisation;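 note: polarization taken with two DNA probes labelled with fluorescein and Texas red; potency is the fitted concentration of half-maximal effect; % of control where 0% means no effect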
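His-tagged ERG Ets domain (1 uM in the protein solution; 300mM KCl, 50mM Tris-HCl, 1mM EDTA, 1mM DTT, pH 7.5) received compound, then a probe mix of 5 nM fluorescein-DNA and 100nM Texas-615-DNA. Fluorescence polarization was read for both dyes.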
Mito fusion act: inhibitors of mitochondrial division or activators of mitochondrial fusion. S. cerevisiae fusion-defective mutant growth rescue, CellTiterGlo 48 h. Potency, µM (doses to about 46.1 µM), without a hit: top-dose growth rescue (activation), actives largely listed as activators. hit rate 0.23% among 320,000. AID 485298; note: potency is the fitted concentration of half-maximal effect; % of control where 0% means no effect; nearly all actives have a fitted effect of over 45% in size
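Yeast fusion mutant, YPEG (non-fermentable carbon), compound, 48 h at 37C non-permissive; CellTiterGlo added, 10 min RT, luminescence read. Rescued growth = division inhibition.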
RXFP1 ag: agonists of human relaxin receptor RXFP1; HEK293T-RXFP1 cAMP TR-FRET, 30 min; response scale: percent of porcine relaxin response, buffer zero; Potency, µM (titrated, usually from 57.5 µM), for inactives: at the top dose activation, usual class: activators; hit rate 0.3% among 370,000; note: potency is the fitted concentration of half-maximal effect; % is set by controls: 0 for no effect and ±100 for the full control effect; nearly all actives have a fitted effect of over 60% in size
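Agonist response is measured as cAMP accumulation in an RXFP1-transfected HEK293T line under PDE4 inhibition. Values are scaled between buffer-only and 29 nM porcine relaxin, and EC50s come from standard Hill equation fits.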
RXFP1 antagonist: blocks the human relaxin receptor RXFP1. Q9HBX9. HEK293-RXFP1, relaxin-stimulated cAMP HTRF, 30 min; hits give low values. activity change, negative = inhibition, % at 57.5 µM. hit rate 0.59% among 350,000. AID 1259400;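 active = activity change of -60% or lower, but not beyond a set lower limit; inconclusive = change between -60% and -40%, or beyond the set limit; inactive = change above -40%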; note: % is set by controls: 0 for no effect and ±100 for the full control effect
miR-21 reporter: raises the signal of a miR-21 reporter | AID 2288 | 340,000 tested, under 10 active | Potency, µM (series often up to 38.3 µM), without a hit: at the highest dose reporter change, positive = more light | HeLa miR-21 FLuc reporter, luciferase, 48 h; active = well fitted rising curve with a large enough effect; inconclusive = small, poorly fitted or top-dose-only effect; inactive = no such curve, though single readings can be large or run the other way;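 further: % of control where 0% means no effect; miR-21 action dims this reporter so a rising signal means less miR-21 action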
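HeLa cells endogenously expressing miR-21, stably carrying CMV-driven firefly luciferase with a downstream miR-21 binding site, 2000 cells/well. Titrations up to approximately 40 uM, 48 hours; luciferase luminescence read.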
ASM inhibitor: human S-ASM enzyme inhibition; P17405; placental ASM, HMU-PC fluorogenic substrate, 60 min; hit rate 0.006% among 340,000; Potency, µM (series often up to 57.5 µM), inactives show top-dose activity change, negative = inhibition, actives largely listed as inhibitors; note: potency is the fitted concentration of half-maximal effect
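Human placenta-derived ASM preincubated with compound 10 min at room temperature, then reacted with 9 uM (final) fluorogenic HMU-PC substrate for 60 min at 37 C. Stop solution raises pH to 10; fluorescence read at Ex 386/Em 447 nm.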
* = called active by the depositor; ? = inconclusive; · = no result given; ! = not active in a repeat. Unless noted, calls come from the whole dose curve; as a rule, active = well fitted curve in the direction sought with a large enough effect; inconclusive = small, poorly fitted or top-dose-only effect, or another doubt; inactive = no such curve, though single readings can be large; an effect the other way counts as inactive or inconclusive.

[1] COC(=O)C1=C(C)NC(C)=C(C(=O)OCCc2ccc(N3CCN(C(c4ccccc4)c4ccccc4)CC3)cc2)C1c1cccc([N+](=O)[O-])c1 (stereo unspecified)
[2] O=C1CN(C(=O)c2cccc(Br)c2)C(c2ccccc2)c2cc(Cl)ccc2N1 (stereo unspecified)
[3] Nc1ccc(C(=O)N2N=C(c3ccccc3)CC2(O)C(F)(F)F)cc1 (stereo unspecified)
[4] O=C(C1CC1)N1N=C(c2ccncc2)CC1(O)C(F)(F)F (stereo unspecified)
[5] O=C(C1CC1)N1N=C(c2cccc(Br)c2)CC1(O)C(F)(F)F (stereo unspecified)
[6] O=C(c1ccccc1O)N1N=C(c2ccccc2)CC1(O)C(F)(F)F (stereo unspecified)
[7] CCOc1ccc(NC(=O)CN2C(=O)C(c3ccccc3)=NC23CCCCCC3)cc1
[8] O=C(Nc1cccc(-c2nc3ncccc3o2)c1)c1cc2ccccc2o1

| Compound | 1 | 2 | 3 | 4 | 5 | 6 | 7 | 8 |
| --- | --- | --- | --- | --- | --- | --- | --- | --- |
| RXFP1 antagonist | 8 | -15 | -2 | -62* | -35 | -76* | -8 | -12 |
| RXFP1 ag | · | 0% | 2% | 0% | 2% | -1% | 0% | 2% |
| ERG-DNA inh | · | -9% | -4% | 2% | 4% | 11% | 0% | -3% |
| ASM inhibitor | · | · | -2% | 10% | -2% | -3% | · | -18% |
| miR-21 reporter | · | 15% | -23% | -6% | 7% | -1% | ? | 0% |
| Mito fusion act | · | -1% | 15% | 2% | -6% | 7% | · | 13µM* |

4 entries from above, sorted by the value under Mito fusion act, descending.
nr	Structure	Mito fusion act
3	Nc1ccc(C(=O)N2N=C(c3ccccc3)CC2(O)C(F)(F)F)cc1 (stereo unspecified)	15%
6	O=C(c1ccccc1O)N1N=C(c2ccccc2)CC1(O)C(F)(F)F (stereo unspecified)	7%
4	O=C(C1CC1)N1N=C(c2ccncc2)CC1(O)C(F)(F)F (stereo unspecified)	2%
2	O=C1CN(C(=O)c2cccc(Br)c2)C(c2ccccc2)c2cc(Cl)ccc2N1 (stereo unspecified)	-1%

Next part:
[9] Cc1ccc(-c2nc3ncccc3o2)cc1NC(=O)c1cc2ccccc2o1
[10] O=C(COc1ccc(F)cc1Br)NCCCN1CCCC1=O
[11] Cc1cc(NC(=O)C(C)SCC(=O)OCc2c(Cl)cccc2Cl)no1 (stereo unspecified)
[12] CCN(CC)CCCn1c(C)cc2c(c1=O)C(c1ccc(OC)c(OC)c1OC)C(C#N)=C(N)O2 (stereo unspecified)
[13] CCN(CC)CCCn1c(C)cc2c(c1=O)C(c1ccccc1)C(C#N)=C(N)O2 (stereo unspecified)
[14] O=c1c2sc3ccccc3c2n(Cc2cccc(F)c2)c(=O)n1CCc1ccccc1
[15] Nc1nonc1-n1nnc(C(=O)N/N=C/c2cccnc2)c1CSc1ccc(Cl)cc1
[16] COc1cc(/C=N/NC(=O)Cn2cnc3ccccc3c2=O)ccc1O

| Compound | 9 | 10 | 11 | 12 | 13 | 14 | 15 | 16 |
| --- | --- | --- | --- | --- | --- | --- | --- | --- |
| RXFP1 antagonist | 3 | 2 | -9 | 7 | -6 | · | -65* | -9 |
| RXFP1 ag | 4% | · | 0% | 7% | 1% | 3% | 1% | 14% |
| ERG-DNA inh | 3% | 1% | -16% | -8% | 7% | 2% | -5% | -2% |
| ASM inhibitor | -5% | 2% | -1% | 2% | 1% | · | ? | 16% |
| miR-21 reporter | 1% | · | 0% | 3% | -2% | -36% | 11% | 1% |
| Mito fusion act | 6% | · | -2% | 0% | 11µM* | · | 4% | -4% |

Record cards, as listed above:
`Nc1nonc1-n1nnc(C(=O)N/N=C/c2cccnc2)c1CSc1ccc(Cl)cc1` across the screens: RXFP1 antagonist = -65*; RXFP1 ag = 1%; ERG-DNA inh = -5%; ASM inhibitor = ?; miR-21 reporter = 11%; Mito fusion act = 4%
`O=C(COc1ccc(F)cc1Br)NCCCN1CCCC1=O` across the screens: RXFP1 antagonist = 2; RXFP1 ag = ·; ERG-DNA inh = 1%; ASM inhibitor = 2%; miR-21 reporter = ·; Mito fusion act = ·

Going on with the list.
[17] COc1cc(/C=N/NC(=O)Cn2cnc3c2c(=O)n(C)c(=O)n3C)ccc1O
[18] O=C(Nc1ccc2nc(SCCOc3ccccc3Cl)sc2c1)c1cccs1
[19] Cc1cccc(NC(=O)C2CCN(S(=O)(=O)c3c(C)c(C)cc(C)c3C)CC2)n1
[20] COc1cc(-c2ccno2)ccc1S(=O)(=O)N1CCN(c2cc(C)ccc2C)CC1
[21] CO/N=C(\C(=O)N[C@@H]1C(=O)N2C(C(=O)OCOC(=O)C(C)(C)C)=C(C)CS[C@H]12)c1csc(N)n1
[22] Cc1ccc(Cl)cc1N1CCN(C(=O)Cn2cnc3nc4c(cc3c2=O)CCCC4)CC1
[23] O=C(Cn1cnc2nc3c(cc2c1=O)CCCC3)N1CCN(c2cccc(C(F)(F)F)c2)CC1
[24] CCOc1ccccc1NC(=O)Cn1c(=O)n(Cc2ccco2)c(=O)c2cccnc21

| Compound | 17 | 18 | 19 | 20 | 21 | 22 | 23 | 24 |
| --- | --- | --- | --- | --- | --- | --- | --- | --- |
| RXFP1 antagonist | 41 | 0 | -79* | -13 | -36 | -68* | -11 | · |
| RXFP1 ag | 16µM* | 1% | -2% | 0% | · | 3% | -2% | 6% |
| ERG-DNA inh | -16% | -4% | -11% | -1% | · | -4% | 1% | -1% |
| ASM inhibitor | 28% | · | · | · | · | · | · | · |
| miR-21 reporter | 0% | 13% | · | 8% | · | 20% | -1% | -6% |
| Mito fusion act | -3% | · | 20µM* | · | · | · | · | · |

[25] Cc1c(C(=O)O)cccc1-c1ccc(/C=N/Nc2ccc(Br)cc2)o1
[26] CC(C)N1CCC2(CC1)N=C(c1ccc3c(c1)OCO3)CC(c1cc(Cl)ccc1O)N2 (stereo unspecified)
[27] O=C(Nc1cc(Cl)ccc1O)c1cc(-c2ccc3c(c2)OCO3)on1
[28] C#CCCCCCCCCC(=O)NCCCC
[29] CCCCCCCCCCCCCCCC(=O)NCCO
[30] Cc1ccc(S(=O)(=O)c2ccc([N+](=O)[O-])o2)cc1
[31] CCN(CC)c1ccc2cc(-c3nc4sc5c(c4c(=O)[nH]3)CCC(C(C)(C)C)C5)c(=O)oc2c1 (stereo unspecified)
[32] CN(Cc1ccccc1)C(=O)c1ccccc1N(C)S(=O)(=O)c1ccccc1

| Compound | 25 | 26 | 27 | 28 | 29 | 30 | 31 | 32 |
| --- | --- | --- | --- | --- | --- | --- | --- | --- |
| RXFP1 antagonist | -23 | -67* | 1 | -15 | -3 | -60* | 10 | -62* |
| RXFP1 ag | 0% | 0% | 0% | 0% | 1% | · | ? | 1% |
| ERG-DNA inh | -1% | 6% | 1% | 3% | 3% | 1% | 8% | -1% |
| ASM inhibitor | 115% | -3% | · | 5% | -2% | 0% | · | -2% |
| miR-21 reporter | -30% | 21% | -42% | -3% | · | · | -18% | · |
| Mito fusion act | 20µM* | 7% | · | 5% | 4.1µM*! | · | · | 11% |

[33] Cc1ccc(S(=O)(=O)CCC(=O)OCn2nnc3ccccc3c2=O)cc1
[34] CCN1C(=O)C2(C(C(=O)c3ccc(C)o3)=C(O)C(=O)N2CCCN2CCOCC2)c2ccccc21 (stereo unspecified)
[35] CCN1C(=O)C2(C(C(=O)c3cc4ccccc4o3)=C(O)C(=O)N2CCCN2CCOCC2)c2ccccc21 (stereo unspecified)
[36] Cc1ccc(SC(CC(=O)c2ccc(F)cc2)C(=O)O)cc1 (stereo unspecified)
[37] CC(C)(C)c1ccc(C(=O)CC(Sc2ccc(Cl)cc2)C(=O)O)cc1 (stereo unspecified)
[38] CCCc1cc(=O)oc2c(C)c3occ(C)c3cc12
[39] Cc1nc2c(C(=O)NCc3ccccc3)c[nH]n2c(=O)c1Cc1ccccc1Cl
[40] Cc1nc2c(C(=O)NCc3ccccc3)c[nH]n2c(=O)c1Cl
[41] CCOC(=O)C(Oc1ccc2c(-c3ccc(OC)cc3)cc(=O)oc2c1C)c1ccccc1 (stereo unspecified)

| Compound | 33 | 34 | 35 | 36 | 37 | 38 | 39 | 40 | 41 |
| --- | --- | --- | --- | --- | --- | --- | --- | --- | --- |
| RXFP1 antagonist | -1 | 8 | 48 | -8 | -96* | -15 | -60* | 9 | 1 |
| RXFP1 ag | 3% | 15% | 16µM* | 5% | 0% | 4% | 1% | -1% | 0% |
| ERG-DNA inh | -2% | · | -13% | -1% | -2% | -3% | -2% | 0% | -8% |
| ASM inhibitor | -2% | 1% | 3% | 2% | 7% | 26% | · | 13% | -2% |
| miR-21 reporter | 1% | -1% | 1% | 16% | 21% | -3% | 26% | -8% | 3% |
| Mito fusion act | 4% | 0% | -4% | 0% | 10% | 10µM* | · | 2% | -1% |
